Measured values published in patent US9688760B2, “Anti-leukocyte adhesion for the mitigation of potential adverse events caused by CD3-specific binding domains” (AMGEN RESEARCH (MUNICH) GMBH, priority 2013, dated 2017).

How the values were obtained:
patients = assay: Phase 1 clinical study: Blinatumomab with PPS co-medication; assay type: in vivo, human; conditions: PPS co-medication with Blinatumomab 5 then 60 μg/m^2/day
Protocol: Three patients received in particular an intravenous PPS infusion during both the start-of-infusion phase at 5 μg/m^2/day of Blinatumomab and the dose-step phase to 60 μg/m^2/day after treatment week 1 (see also the Example section for further details). […] Thus, much to the surprise of the present inventors it was indeed possible to mitigate the expected CNS AE in these patients by way of decreasing the adhesion of re-directed T-cells to the respective endothelial cells. […] In two cases (D and E), there was even an increased T cell-count at 45 minutes. In one case (F), an increased T cell-count was still observed at 2 hours. The redistribution process and thus the underlying leukocyte adhesion to blood vessel endothelium was obviously slowed down by intervention with intravenous PPS as decreased T cell-counts in the peripheral blood were not detected earlier than 2 hours after start of infusion or stepwise dose increase of Blinatumomab.
In a phase 1 clinical study three patients were treated with Blinatumomab at an initial dose of 5 μg/m^2/day for 1 week followed by a dose escalation to 60 μg/m^2/day for additional 3 to 7 weeks. Concomitant PPS was administered as 100 mg bolus iv infusion at 3 h±30 min prior to start of infusion and dose escalation of Blinatumomab followed by perfusion of 300 mg/day for 48 h after start of infusion and dose escalation of Blinatumomab.

[1] = tested on: ICAM-1, P-selectin and VCAM-1 on HBMEC; assay: Immunofluorescence staining of HBMEC after T cell-rolling; assay type: cell-based, human; conditions: histamine-stimulated HBMEC; Blinatumomab plus pre-incubation of HBMEC with PPS
Protocol: After rolling and adhesion of T cells on HBMEC or HUVEC under flow conditions, endothelial cells were fixed using 150 μl of 4% paraformaldehyde solution (#P-6148, Sigma-Aldrich) for 30 min at 4° C. μ-slides were rinsed with 150 μl of D-PBS and subjected to immunofluorescence staining. HBMEC were first blocked with 150 μl of avidin blocking reagent (#PHA-70871, reagent 1, Dianova) for 10 min at room temperature, washed with 150 μl of D-PBS followed by incubation with 150 μl of biotin blocking reagent (#PHA-70871, reagent 2, Dianova). All following staining procedures were performed in 150 μl of D-PBS with 5% FBS at room temperature in the dark, and washing steps were done in 150 μl of D-PBS. μ-slides were incubated with 5 μg/ml polyclonal rabbit anti-human VCAM-1 (#106777, abcam) for 1 h. After washing, 20 μg/ml goat anti-rabbit IgG-DyLight350 was added for 1 h followed by washing and incubation with 15 μg/ml mouse anti-human P-selectin IgG1 (#BBA30, R&D Systems) for 2 h. After washing, goat anti-mouse IgG-Alexa488 (1:100) (#A10680, Invitrogen) was added for 1 h. […] VCAM-1 staining was monitored with a CFL EPI-FL Filter Block UV-2A (#MBE41200, Nikon), P-selectin staining with a CFL EPI-FL Filter Block GFP-B (#MBE44740, Nikon), and ICAM-1 staining with an EPI-FL Filter Block Cy3 (#MXU96213, Nikon). […]

In the case of “β1→4-D-Xylan-2,3-bis(hydrogen sulfate) [PPS]”, the “treatment discontinuation due to CNS AEs” value (patients; Patient 109-036, low B:T cell-ratio) is reported as “no treatment discontinuation due to CNS AEs was required”, the “treatment discontinuation due to CNS AEs” value (patients; Patient 109-040, low B:T cell-ratio) is reported as “no treatment discontinuation due to CNS AEs was required” and the “treatment discontinuation due to CNS AEs” value (patients; Patient 109-042, low B:T cell-ratio) is reported as “no treatment discontinuation due to CNS AEs was required”. The “cell surface expression of P-selectin on HBMEC” value [1] was “lesser increase; also recorded: reduced cell surface expression of P-Selectin”.

“Also recorded” adds a separate entry of the source.
